Rango-impB inh = qHTS Assay for Inhibitors of Rango (Ran-regulated importin-beta cargo) - Importin beta complex formation. Importin subunit beta-1 (Homo sapiens), Q14974. Rango CFP/YFP FRET sensor + importin beta, 45 min. Potency, µM (series often up to 92.2 µM). actives 0.031% (n = 340,000); calls by dose curve; further: nearly all actives have a fitted effect of over 15% in size
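Inhibition scored from the CFP 486 nm/YFP 530 nm FRET ratio 45 min after adding 0.125 microM importin beta to 50 nM Rango biosensor preincubated 5 min with compound (room temperature, PBS with DTT, Tween-20, BSA). No-importin wells as positive control.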
Integrin act MD = qHTS for Activators of Integrin-Mediated Alleviation for Muscular Dystrophy; alpha7betagal myoblasts, beta-gal FDG fluorescence, 48 h; Potency, µM (doses to about 38.3 µM), most hits filed as activators; actives 0.064% (n = 350,000); AID 624291, 2012; further: nearly all actives have a fitted effect of over 60% in size
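Alpha7betagal+/- myoblasts (passage 13) were plated 16-24 hr, then exposed to compounds (1:260 dilution of DMSO stock) for 48 hours at 37C. After MPER lysis, β-galactosidase reporter activity was read as FDG fluorescence (ex 480/em 540) after 30 minutes.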
CCT modulator = High-Throughput Screening for Modulators of Cytosolic Chaperonin Activity. AID 651819, 2012. actives 0.3% (n = 360,000). purified chaperonin ATPase assay, HTRF ADP detection, 30 min. activity change, % (test concentration not listed), hits read low; in the data active means activity change below about -30%
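First, chaperonin was dispensed at 40 nM or 20 nM final depending on batch activity. Next, compounds were pinned at 76 uM and ATP added at 10 uM. After 30 min at 37 °C, ADP detection reagents ran 30 min at ambient temperature.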
Mm-Cpn inhibitor = Inhibitors of TCP-1 ring complex (TRiC) of Methanococcus maripaludis (MmCpn): qHTS. purified Mm-Cpn ATPase, ADP Transcreener TR-FRET. Potency, µM (doses to about 76.9 µM), hits mostly inhibitors. actives 0.031% (n = 330,000). AID 504842, 2011; further: nearly all actives have a fitted effect of over 80% in size
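Compound-treated chaperonin, 25 nM final, turns over 10 uM ATP at 37°C for 30 min following a 10 min preincubation; ADP generated competes with ADP-d2 for Eu-cryptate antibody, lowering FRET.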
Rango release inh = qHTS Assay for Inhibitors of RanGTP induced Rango (Ran-regulated importin-beta cargo) - Importin beta complex dissociation; Snurportin-1 (Homo sapiens) + GTP-binding nuclear protein Ran (Homo sapiens) + Importin …; Biochemical FRET Rango-importin beta, RanGTP-induced dissociation; Potency, µM (titrated, usually from 46.1 µM); actives 0.071% (n = 340,000); AID 540253, 2011; calls by dose curve; further: nearly all actives have a fitted effect of over 45% in size
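Compounds sat 5 min at room temperature with 0.1 uM Rango biosensor plus 0.25 uM importin beta, then FRET pre-read. RanGTP-RCC1 (0.6 uM Ran, 2mM GTP, 0.2 uM RCC1) added for 45 min, and the CFP/YFP post-read measured blocked complex dissociation.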
A number is an active result; - = inactive; ? = inconclusive; . = no result; [ ] = dose if it differs, or a comment. Rows were chosen to be rich in hits. Some 0.51% of all compounds tested hit in one or more screens of this group. Unless noted, the call rests on the fitted dose curve; in most records, active means well fitted curve in the direction sought with a large enough effect; inconclusive means small, poorly fitted or top-dose-only effect, or another doubt; inactive means no such curve, though single readings can be large; an effect the other way counts as inactive or inconclusive.

Amino acid sequences for entries named in this document (tags omitted).
Importin subunit beta-1 (Homo sapiens), Q14974, UniProt Q14974, whole entry, looked up: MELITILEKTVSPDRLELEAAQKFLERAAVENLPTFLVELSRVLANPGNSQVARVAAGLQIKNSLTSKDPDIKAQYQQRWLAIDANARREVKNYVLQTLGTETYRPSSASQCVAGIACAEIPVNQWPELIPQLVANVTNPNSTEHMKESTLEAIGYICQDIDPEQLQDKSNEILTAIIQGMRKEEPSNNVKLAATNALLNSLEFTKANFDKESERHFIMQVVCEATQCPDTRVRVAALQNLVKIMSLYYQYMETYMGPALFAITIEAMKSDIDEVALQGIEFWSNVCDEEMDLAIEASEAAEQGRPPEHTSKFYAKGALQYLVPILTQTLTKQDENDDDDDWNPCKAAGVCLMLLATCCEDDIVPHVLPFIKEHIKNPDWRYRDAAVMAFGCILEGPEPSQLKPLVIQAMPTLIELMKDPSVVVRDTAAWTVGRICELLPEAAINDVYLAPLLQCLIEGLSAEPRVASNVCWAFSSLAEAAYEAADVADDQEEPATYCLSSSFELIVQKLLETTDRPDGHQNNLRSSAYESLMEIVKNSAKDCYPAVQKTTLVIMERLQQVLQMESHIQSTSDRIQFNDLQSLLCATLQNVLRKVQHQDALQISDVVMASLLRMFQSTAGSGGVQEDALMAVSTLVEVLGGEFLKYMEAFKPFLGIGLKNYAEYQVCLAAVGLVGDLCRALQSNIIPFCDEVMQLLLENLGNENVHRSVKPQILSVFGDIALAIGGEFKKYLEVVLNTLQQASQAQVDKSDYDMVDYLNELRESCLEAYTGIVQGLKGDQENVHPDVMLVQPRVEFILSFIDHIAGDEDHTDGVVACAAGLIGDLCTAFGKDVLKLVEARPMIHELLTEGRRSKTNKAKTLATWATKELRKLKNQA

SMILES	Rango-impB inh	Integrin act MD	CCT modulator	Mm-Cpn inhibitor	Rango release inh
CC(=O)n1cc(C2CC(=O)OC3=C2CC(=O)C(C)(C)C3)c2ccccc21 (stereo not drawn)	.	-	-106	.	.
CC(=O)n1cc(C2C(=O)CCCC2=O)c2ccccc21	-	-	-	-	-
O=C(NCCCN1CCOCC1)c1ccc(S(=O)(=O)Nc2cccc(C(F)(F)F)c2)cc1	-	-	-37	-	-
CN(CCc1ccccc1)C(CCc1ccccc1)C(=O)Nc1ccc2c(c1)OCCO2 (stereo not drawn)	.	.	-	.	.
C/C(=C1/SC(=S)N(CCC(=O)O)C1=O)c1ccc(O)cc1	-	-	-38	-	-
COc1ccc(/C(C)=C2\SC(=S)N(CCC(=O)O)C2=O)cc1	-	-	-	-	-
COC(=O)NCC(c1ccco1)N1CCN(c2ccc(OC)cc2)CC1 (stereo not drawn)	-	-	-	-	-
COc1ccc(N2CCN(C(CNC(=O)C(=O)NCCCO)c3ccco3)CC2)cc1 (stereo not drawn)	-	-	-69	-	-
CC(=O)NC(c1ccco1)c1cc(Cl)c2ccc(N3CCCCC3)nc2c1O (stereo not drawn)	.	.	.	-	.
Cc1ccc(CNS(=O)(=O)c2ccc3c(c2)NC(=O)CS3)cc1	-	-	-74	-	-
O=C1CSc2ccc(S(=O)(=O)NCc3ccc(F)cc3)cc2N1	-	-	-	-	-
CCCCCCN1C[C@@H](n2cc(COC(=O)c3ccccc3)nn2)[C@H](O)C[C@@H]1c1ccc(Cl)cc1	.	-	-	.	.
O=C(CCC1CCCC1)NNC(=O)c1cc2ccccc2cc1O	?	-	-	-	18µM
N#Cc1c(C(F)(F)F)cc(-c2ccco2)nc1SCc1ccccn1	37µM	-	-	.	-
N#Cc1c(C(F)(F)F)cc(-c2ccco2)nc1SCc1ccncc1	?	-	-	-	?
Cc1cc(C)c(S(=O)(=O)Nc2cccc3nsnc23)c(C)c1	-	-	-	-	-
O=S(=O)(Nc1cccc2nsnc12)c1ccccc1	29µM	-	-	-	-
COC(=O)c1c(-c2ccc(N(C)C)cc2)sc2ccc(OC)cc12	?	-	-	-	?
COC(=O)c1c(-c2ccc(OC)cc2)sc2cc3c(cc12)OCO3	-	-	-	50µM	-
COc1ccc(NC(=O)C2(C)Cc3c(-c4cccc(NC(C)=O)c4)ccnc3O2)cn1 (stereo not drawn)	.	.	-	.	.
COc1ccc(-c2csc(C(O)c3ccc(F)cc3)n2)cn1 (stereo not drawn)	.	.	-	.	.
OC(c1ccc(Cl)c(F)c1)c1ncc(-c2cccc(C(F)(F)F)c2)[nH]1 (stereo not drawn)	.	.	-	.	.
CCCc1cnc(Nc2nc(C(N)Cc3ccc(C(F)(F)F)cc3)cs2)nc1 (stereo not drawn)	.	.	-	.	.
O=C(Nc1cccc(NC(=O)c2cc([N+](=O)[O-])ccc2Cl)n1)c1cc([N+](=O)[O-])ccc1Cl	21µM	-	-	.	-
COc1cc2c(cc1OC)C1O[C@](CCCCN3C(=O)c4ccccc4C3=O)(C2)Oc2c1c(=O)oc1ccc(F)cc21	.	.	.	-[15.4 µM]	.
SMILES	Rango-impB inh	Integrin act MD	CCT modulator	Mm-Cpn inhibitor	Rango release inh
COc1ccc(OC)c(NC(=O)CN2C(=O)CSc3ccc(S(=O)(=O)N4CCCC4)cc32)c1	-	?	-	-	-
COc1ccc(NC(=O)CSc2ccc(NC(C)=O)cc2)cc1S(=O)(=O)N1CCCCC1	-	-	-	-	-
COc1ccc(NC(=O)CSc2ccccc2)cc1S(=O)(=O)N1CCCCC1	23µM	-	-	-	-
COc1ccc(NC(=O)CN2C(=O)CSc3ccc(S(=O)(=O)N4CCCC4)cc32)cc1OC	-	-	-37	-	-
CCOC(=O)C1(C)CCCN(C(=O)c2cccc(OC(F)(F)F)c2)C1 (stereo not drawn)	.	.	-	.	.
CC1CCC(NC(=O)COc2ccc(C(=O)c3ccccc3)cc2)CC1 (stereo not drawn)	-	-	-45	-	-
CC(=O)c1ccc(OCC(=O)NC2CCCCCC2)cc1	-	-	-	-	-
CC1=C(C(=O)N2CCOCC2)CC(CC(=O)NC2CCCC2)C(=O)N1CCCN1CCCC1=O (stereo not drawn)	.	-	-	.	.
CCCC[C@]12Cc3cc(C#N)ccc3C(O1)c1c(cc(C)n(Cc3ccccc3)c1=O)O2	.	.	.	-[15.4 µM]	.
COc1ccc(N2C(=O)/C(=C/c3cccs3)NC2=S)cc1	?	-	-	-	16µM[inhibitor]
CC1(C(=O)NS(=O)(=O)c2cccc(Cl)c2)CCN1C(=O)CCc1cccs1 (stereo not drawn)	.	.	-	.	.
NC(=O)C1CCN(c2nc(-c3ccccc3[N+](=O)[O-])cs2)CC1	.	.	.	-	.
CCS(=O)(=O)N1CCN(c2ccccc2)CC1	-	-	-40	-	-
Cn1cnc(S(=O)(=O)N2CCN(c3ccccc3)CC2)c1	-	-	-78	-	-
CCc1nc2ccc(C(=O)N3CCN(C(=O)c4ccco4)CC3)cn2c1N(C)C(=O)COc1ccccc1	.	.	-	.	.
COCCNC(=O)C1CCCN(C(=O)c2ccc(SC(F)(F)F)cc2)CC1 (stereo not drawn)	.	.	-	.	.
COc1ccc(NC(=O)C2(C)CCN2C(=O)C(C)C)cc1F (stereo not drawn)	.	.	-36	.	.
COc1ccccc1NS(=O)(=O)c1cn(C)cn1	-	-	-53	-	-
COc1ccccc1-c1nc2c3ccccc3nc(=S)n2[nH]1	-	?	-	-	-
COc1cc(-c2nc3c4ccccc4nc(=S)n3[nH]2)cc(OC)c1OC	-	-	-37	-	-
Cc1cc(/C=C2\NC(=S)NC2=O)c(C)n1-c1cccnc1	?	-	-83	-	-
Cc1cc(/C=C2\NC(=O)NC2=O)c(C)n1-c1cccnc1	-	-	-	-	-
COc1ccc(CNC(=O)C(NC(C)=O)C(=O)Nc2ccc(C(C)C)cc2)cc1 (stereo not drawn)	-	-	-41	-	-
COc1ccc(NC(=O)C(NC(C)=O)C(=O)NCc2ccccc2OC)cc1 (stereo not drawn)	-	-	-	-	-
COC(=O)[C@H]1C[C@@H]1[C@H](N)c1ccccc1	-	-	-49	-	-
CC1(C(=O)Nc2cccc(C#N)c2)CCN1C(=O)C1(c2ccccc2)CC1 (stereo not drawn)	.	.	-	.	.
O=C(CCCCCn1c(=S)[nH]c2ccc(N3CCOCC3)cc2c1=O)NCc1ccc2c(c1)OCO2	?	-	-57	-	?

Screens (PubChem BioAssay)
